Molecules are shown by their SMILES. This is a selection; strong and weak results do not stand in their true shares. Active and inactive are the calls of the source. Cut-off read from the data, not from the text of the source: active = inhibition above about 27%; inactive = the rest.

Sequences of proteins named here, by UniProt entry; tags and fusion partners are left off.
UniProt P9WQA3, whole entry: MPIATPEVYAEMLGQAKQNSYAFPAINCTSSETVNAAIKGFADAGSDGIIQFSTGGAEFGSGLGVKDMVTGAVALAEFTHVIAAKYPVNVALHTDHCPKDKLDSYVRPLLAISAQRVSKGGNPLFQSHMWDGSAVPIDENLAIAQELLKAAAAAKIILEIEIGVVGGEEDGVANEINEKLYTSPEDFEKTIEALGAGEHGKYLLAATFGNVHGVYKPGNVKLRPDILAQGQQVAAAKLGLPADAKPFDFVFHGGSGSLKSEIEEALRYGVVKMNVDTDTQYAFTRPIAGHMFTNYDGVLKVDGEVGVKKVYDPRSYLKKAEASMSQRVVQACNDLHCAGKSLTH

The assay addresses Fructose-bisphosphate aldolase (Mycobacterium tuberculosis (strain ATCC 25618 / H37Rv)) (UniProt P9WQA3). Briefly: M. tuberculosis aldolase activity blockers – biochemical, fluorescence, strain H37Rv, primary screen (AID 588726).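 Note: 0% = vehicle and 100% = reference inhibitor.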 To be noted: purified M. tuberculosis FBA, fluorescence read-out; at 1 µM; active compounds read high.
For `CCC(=O)N(c1ccccc1)C1(COC)CCN(CCc2cccs2)CC1`, the inhibition (usually the change of the read-out against control, counted positive when it falls) is inactive: 5.57%.

Consider `CCC(=O)N(c1ccccc1)C1(COC)CCN(CCn2nnn(CC)c2=O)CC1`, for which the inhibition is inactive: -0.16%.

Values taken from PubChem BioAssay AID588726 (The Scripps Research Institute Molecular Screening Center, 2011).
